SMILES strings stand for the structures. pKi: −log10 of the molar value. Where only a bound is given, the exact number is not on record here.

The target of assay [1] is T1, 5-hydroxytryptamine receptor 1A (Rattus norvegicus, UniProt P19327). Nature of the assay: Tested for affinity against 5-hydroxytryptamine 1A receptor using [3H]8-OH-DPAT in homogenized rat brain tissue.
The target in assay [2] is T1, 5-hydroxytryptamine receptor 1A. The experiment in a line: Tested for affinity against 5-hydroxytryptamine 1A receptor using [3H]8-OH-DPAT in homogenized rat brain.
For assay [3] the target is unchanged. The experiment in a line: Tested for affinity against 5-hydroxytryptamine 1A receptors using [3H]8-OH-DPAT in homogenized rat cloned CHO cells. The format is cell-based.

A word on the pKi: it is the negative decadic logarithm of the Ki, by convention in mol/L. Lower therefore signals a large Ki. Take `CCCN1CCC[C@@H](c2cccc(S(C)(=O)=O)c2)C1`: the negative-log Ki (pKi) in assay [1] is 5.59.

In assay [1], `CCCN1CCC[C@@H](c2cccc(-c3ccsc3)c2)C1` had a pKi of 6.80.

The compound `CN(C)CCCN1CCC[C@@H](c2cccc(C#N)c2)C1` showed a pKi in assay [1] of 5.15.

`CCCN1CCC[C@@H](c2ccc(OS(=O)(=O)C(F)(F)F)c(OS(=O)(=O)C(F)(F)F)c2)C1` gave a negative logarithm of the Ki (pKi) in assay [2] of under 5.00.

For `CCCN1CCC[C@@H](c2ccc(OS(=O)(=O)C(F)(F)F)cc2)C1`, the negative logarithm of the Ki (pKi) in assay [2] is under 5.00.

Take `CCCc1cccc([C@@H]2CCCN(CCC)C2)c1`: in assay [1], the negative logarithm of the Ki (pKi) was 6.87.

For the compound `CCN1CCC[C@@H](c2cccc(OS(=O)(=O)C(F)(F)F)c2)C1`, the negative-log Ki (pKi) in assay [1] is 5.98.

Consider `CCCN1CCC[C@@H](c2cccc(S(=O)(=O)N(C)C)c2)C1`, for which the negative logarithm of the Ki (pKi) in assay [1] is 5.09.

For `CCC(C)N1CCC[C@@H](c2cccc(C#N)c2)C1` (stereo partly specified), the pKi in assay [1] is 5.09.

Compound `CCCN1CCC[C@@H](c2cccc(OS(=O)(=O)C(F)(F)F)c2)C1` showed a negative logarithm of the Ki (pKi) in assay [1] of 5.82.

On to `CN1CCC[C@@H](c2cccc(C#N)c2)C1`, for which the negative logarithm of the Ki (pKi) in assay [1] was under 5.00.

As for `CCN1CCC[C@@H](c2cccc(C#N)c2)C1`, the pKi in assay [1] is under 5.00.

Take `C#CCN1CCC[C@@H](c2cccc(C#N)c2)C1`: in assay [1], the pKi was under 5.00.

On to `CCCN1CCC[C@@H](c2cccc(C#N)c2)C1`, for which the pKi in assay [1] is under 5.00.

In turn, `CCCN1CCC[C@@H](c2cccc(C(N)=O)c2)C1` showed a pKi in assay [1] of 5.30.

As for `CCCN1CCC2c3cccc(OS(=O)(=O)C(F)(F)F)c3CCC21` (stereo unspecified), in assay [1], the negative logarithm of the Ki (pKi) is 7.14.

As to `CCCN1CCC[C@@H](c2cccc(Br)c2)C1`, the pKi in assay [1] is 6.10.

Consider `C=CCN1CCC2c3cccc(C#N)c3CCC21` (stereo unspecified), for which the pKi in assay [1] is under 6.40.

Compound `CCCN1CCC[C@@H](c2cccc(CO)c2)C1` gave a pKi in assay [1] of 5.62.

The compound `C=CCN1CCC[C@@H](c2cccc(C#N)c2)C1` showed a negative logarithm of the Ki (pKi) in assay [1] of 5.02.

Regarding `CCCN1CCC[C@@H](c2cccc(C)c2)C1`, the negative-log Ki (pKi) in assay [1] is 5.92.

In the case of `CCCN1CCC[C@@H](c2cccc(NS(=O)(=O)C(F)(F)F)c2)C1`, the pKi in assay [1] is under 5.70; in assay [3] it was under 5.00.

The compound `CC(C)N1CCC[C@@H](c2cccc(C#N)c2)C1` showed a pKi in assay [1] of under 5.00.

`C=CCN1CCC2c3cccc(OS(=O)(=O)C(F)(F)F)c3CCC21` (stereo unspecified): in assay [1], the negative logarithm of the Ki (pKi) was 7.74.

Turning to `CCCN1CCC[C@@H](c2cccc(OC)c2)C1`, the negative logarithm of the Ki (pKi) in assay [1] is 5.44.

In assay [1], `CCCN1CCC[C@@H](c2cccc(OS(C)(=O)=O)c2)C1` had a pKi of 5.86.

With `N#Cc1cccc([C@@H]2CCCN(CCc3ccccc3)C2)c1`, the negative logarithm of the Ki (pKi) in assay [1] is 6.92.

In assay [1], `N#Cc1cccc([C@@H]2CCCNC2)c1` showed a negative-log Ki (pKi) of 5.10.

Consider `CCCN1CCC[C@@H](c2ccccc2OS(=O)(=O)C(F)(F)F)C1`, for which the pKi in assay [1] is 5.74.

For the compound `CCCN1CCC[C@@H](c2cccc(CC#N)c2)C1`, the negative-log Ki (pKi) in assay [1] was 5.49.

Regarding `CCCN1CCC[C@@H](c2cccc(OCC(F)(F)F)c2)C1`, the pKi in assay [1] is 5.92.

On to `CCCCN1CCC[C@@H](c2cccc(C#N)c2)C1`, for which the pKi in assay [1] was 5.35.

Regarding `C=CCN1CCC2c3cccc(C(N)=O)c3CCC21` (stereo unspecified), the pKi in assay [1] was under 6.00.

The compound `CCCN1CCCC2c3cccc(OS(=O)(=O)C(F)(F)F)c3CCC21` (stereo in doubt; 45) gave a negative logarithm of the Ki (pKi) in assay [1] of 5.94.

Turning to `C=CCN1CC[C@@H]2c3cccc(OS(=O)(=O)C(F)(F)F)c3CC[C@@H]21` (stereo in doubt; 49), the pKi in assay [1] was 6.93.

The record behind these values is ChEMBL document CHEMBL1127438, “Substituted (S)-phenylpiperidines and rigid congeners as preferential dopamine autoreceptor antagonists: synthesis and structure-activity relationships” (J Med Chem, 1994).
